Results from ChEMBL document CHEMBL2321678, “Incorporation of non-natural amino acids improves cell permeability and potency of specific inhibitors of proteasome trypsin-like sites” (J Med Chem, 2013).

Sequences of proteins named here, by UniProt entry; tags and fusion partners are left off. A change or cut given only in a name is not applied to a line headed by its entry.
UniProt P28074: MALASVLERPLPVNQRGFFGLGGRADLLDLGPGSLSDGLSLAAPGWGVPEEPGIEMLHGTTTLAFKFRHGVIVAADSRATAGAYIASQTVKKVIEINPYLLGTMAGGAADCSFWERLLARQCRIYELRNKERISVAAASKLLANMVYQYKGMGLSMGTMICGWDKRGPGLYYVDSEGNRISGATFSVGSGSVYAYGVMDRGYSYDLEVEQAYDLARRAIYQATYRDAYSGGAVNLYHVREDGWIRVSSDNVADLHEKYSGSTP

Key:
[1] = biological target: T1, Proteasome Macropain subunit MB1 (Homo sapiens, UniProt P28074); assay: Inhibition of chymotrypsin-like activity of proteasome in human RPMI-8226 cells after 6 hrs by proteasomeGlo assay; type: cell-based
Summary of the method: (§1)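 Cells then pelleted, resuspended in PBS and mixed with site-specific luminogenic substrates in lysis/assay buffer. Mixing 3 min, then 17 min in the dark before luminescence, triplicate per substrate/point. Activity as % of mock; IC50 from a four-parameter nonlinear fit.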

[2] = biological target: T1, Proteasome Macropain subunit MB1; assay: Inhibition of chymotrypsin-like activity of proteasome in human NCI-H929 cells after 6 hrs by proteasomeGlo assay; type: cell-based; summary of the method: as §1
[3] = biological target: T1, Proteasome Macropain subunit MB1; assay: Inhibition of chymotrypsin-like activity of proteasome beta 5 subunit in HEK-293T cell lysates using BODIPY-BODIPY-TMR-epoxomicin as probe after 1 hr by SDS-PAGE analysis
Summary of the method: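 Then 1 h at 37 °C with BODIPY-TMR-Ahx3L3-vs or BODIPY-TMR-epoxomicin (0.5 µM). Three independent experiments; IC50 fitted.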

[4] = biological target: T1, Proteasome Macropain subunit MB1; assay: Competitive inhibition of chymotrypsin-like activity of proteasome beta 5 subunit in HEK293T cells after 4 hrs by SDS-PAGE analysis in presence of BODIPY-BODIPY-TMR-epoxomicin; type: cell-based, HEK-293T
[5] = Inhibition of chymotrypsin-like activity of rabbit 26s proteasome beta 5 subunit assessed as hydrolysis of Suc-LLVY-amc fluorogenic substrate preincubated for 30 mins followed by substrate addition measured for 30 mins by fluorescence plate reader analysis; design: species or system Oryctolagus cuniculus
Summary of the method: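 Purified rabbit-muscle 26S proteasome (final 3 µg/mL) preincubated 30 min with a range of inhibitor concentrations. Slopes expressed as % of mock; IC50 by four-parameter least-squares fit.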

| Structure (SMILES) | IC50 [1] | IC50 [2] | IC50 [3] | IC50 [4] | IC50 [5] |
| --- | --- | --- | --- | --- | --- |
| CC(C)C[C@H](NC(=O)[C@H](Cc1ccc(N)cc1)NC(=O)[C@H](Cc1ccccc1)N=[N+]=[N-])C(=O)N[C@H](/C=C/S(C)(=O)=O)Cc1ccc(CN)cc1 | 7.2 µM | 3.6 µM | 2.8 µM | – | – |
| Cc1c(O)cccc1C(=O)N[C@H](C(=O)N[C@@H](CO)C(=O)N[C@H](/C=C/S(C)(=O)=O)Cc1ccc(CN)cc1)C(C)C | 15 µM | 13 µM | – | – | – |
| CC(C)C[C@H](NC(=O)[C@H](Cc1ccncc1)NC(=O)[C@H](Cc1ccccc1)N=[N+]=[N-])C(=O)N[C@H](/C=C/S(C)(=O)=O)Cc1ccc(CN)cc1 | – | 10.5 µM | 5.5 µM | > 50 µM | 1.05 µM |
